From patent US6759420B1, “Arylalkanoyl derivatives, processes for their preparation, their use and pharmaceutical compositions containing them” (Aventis Pharma Deutschland GmbH, priority 1999, dated 2004)

The chains behind the UniProt entries cited, without tags or fusion partners. Residues count along the entry.
UniProt P00742, 41-179 limits assumed: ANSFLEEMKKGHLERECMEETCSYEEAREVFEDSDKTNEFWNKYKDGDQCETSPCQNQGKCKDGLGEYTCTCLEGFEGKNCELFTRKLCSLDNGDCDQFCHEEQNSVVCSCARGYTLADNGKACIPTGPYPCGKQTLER
UniProt P00742, 235-488 limits assumed: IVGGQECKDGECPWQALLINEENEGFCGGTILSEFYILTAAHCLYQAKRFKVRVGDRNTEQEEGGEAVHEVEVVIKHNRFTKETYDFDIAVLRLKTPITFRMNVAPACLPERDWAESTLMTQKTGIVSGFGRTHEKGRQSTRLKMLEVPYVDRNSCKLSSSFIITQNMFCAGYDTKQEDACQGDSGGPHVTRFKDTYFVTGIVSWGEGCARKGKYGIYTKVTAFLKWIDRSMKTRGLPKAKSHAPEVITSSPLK

Target: factor Xa (Homo sapiens, UniProt P00742)
Experiment: Factor Xa assay (Test 1a), chromogenic
Details: read-out: Ki (Xa); in vitro factor Xa assay Test 1a; human factor Xa 0.5 nM, substrate S-2765 140 μM, 25° C.; Ki from IC50 corrected for substrate competition; tested form: trifluoroacetic acid salt
Text: The ability of a compound of formula (I) to inhibit factor Xa, thrombin, plasmin, elastase, and trypsin may be assessed by determining the concentration of compound of formula (I) that inhibits enzyme activity by 50% (IC50). Purified enzymes are used in chromogenic assays. To determine the inhibition constant, the IC50 value is corrected for competition with substrate using the formula:
Ki=IC50×(1/{1+((substrate concentration)/substrate Km)})
where Km is the Michaelis-Menten constant. Y. -C. Chen and W. H. Prusoff, Biochem. Pharmacol. 22: […] (1973), which is incorporated herein by reference.
TBS-PEG buffer (50 mM Tris-Cl, pH 7.8, 200 mM NaCl, 0.05% (w/v) PEG-8000, 0.02% (w/v) NaN3) is used for this assay. […]
The assays are performed by pre-incubating the compound of formula (I) plus enzyme for 10 min, then the assay is initiated by adding substrate to obtain a final volume of 100 μl. The initial velocity of chromogenic substrate hydrolysis is measured by the change in absorbance at 405 nm using a Bio-tek Instruments kinetic plate reader (Ceres UV900HDi) at 25° C. during the linear portion of the time course (usually 1.5 min after addition of substrate). […]

Row | Ki [nM] | Compound
1 | 25 | CCC(=N)N1CCC(CNC(=O)[C@@H](NC(=O)C(Cc2ccc(C(=N)N)cc2)c2cccc(C(F)(F)F)c2)C2CCCCC2)CC1 (single isomer, unassigned) [263]
2 | 19 | CCC(=N)N1CCC(CNC(=O)[C@@H](NC(=O)C(Cc2ccc(C(=N)N)cc2)c2cccc(C(F)(F)F)c2)C2CCCCC2)CC1 (single isomer, unassigned) [262]
